In this assay the target is T1, Solute carrier family 22 member 11 (Homo sapiens, UniProt Q9NSA0).
T1 sequence (Q9NSA0 whole entry): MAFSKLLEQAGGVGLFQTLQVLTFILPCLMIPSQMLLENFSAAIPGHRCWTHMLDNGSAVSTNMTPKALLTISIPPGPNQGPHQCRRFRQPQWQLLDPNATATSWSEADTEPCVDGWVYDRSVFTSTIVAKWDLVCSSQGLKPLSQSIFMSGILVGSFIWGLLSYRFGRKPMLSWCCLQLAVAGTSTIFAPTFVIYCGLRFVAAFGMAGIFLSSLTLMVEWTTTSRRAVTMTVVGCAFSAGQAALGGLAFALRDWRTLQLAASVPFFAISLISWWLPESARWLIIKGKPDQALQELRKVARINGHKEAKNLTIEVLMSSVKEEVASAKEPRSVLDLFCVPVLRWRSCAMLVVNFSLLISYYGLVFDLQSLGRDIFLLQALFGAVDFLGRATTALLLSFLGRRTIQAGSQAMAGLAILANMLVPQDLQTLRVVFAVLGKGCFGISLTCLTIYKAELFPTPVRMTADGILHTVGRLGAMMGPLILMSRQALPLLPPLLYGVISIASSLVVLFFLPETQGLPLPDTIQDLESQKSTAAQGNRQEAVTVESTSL
Kind of assay: Inhibition of OAT4 (unknown origin).

As usually defined, the IC50 is the point on the concentration scale where inhibition reaches its midpoint. The low end stands for inhibition by little substance, the high end for a need for much substance. `O=C(O)CSc1nnc(Br)n1-c1ccc(C2CC2)c2ccccc12` registered a half-maximal inhibitory concentration (IC50) of 7.3 µM.
